Literature values in patent US12338283B2, “Methods for targeting the immune checkpoint PD1 pathway for treating pulmonary fibrosis” (CEDARS-SINAI MEDICAL CENTER, priority 2017, dated 2025).

Target: B7-1
Settings: read-out: affinity of PD-L1 and B7-1 interaction; surface plasmon resonance; cited from earlier work

Which Kd does the source give for “PD-L1: programmed cell death 1 ligand 1 protein” here?
Its Kd is 1700 nM.
